Laboratory results from patent KR20220001106A.

The chains behind the UniProt entries cited, without tags or fusion partners. A line that says so, or that is headed by a name, gives the form on record, which may keep a tag or linker.
UniProt P15692, other isoform, or with tags, fused parts or gaps limits assumed: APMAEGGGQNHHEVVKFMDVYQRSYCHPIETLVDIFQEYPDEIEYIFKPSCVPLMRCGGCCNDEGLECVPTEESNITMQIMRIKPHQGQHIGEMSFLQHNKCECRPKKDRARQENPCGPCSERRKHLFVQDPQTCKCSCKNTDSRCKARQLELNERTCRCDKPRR

Experiments:
[1] = biological target: recombinant human VEGF165 (Sino biological) (human) (UniProt P15692); experiment: cell-based or functional assay
[2] = biological target: recombinant human VEGF165 (Sino biological) (human) (UniProt P15692); experiment: Octet red96E BLI, VEGF165 amine-coupled on AR2G sensor, antibody as analyte, 30 C

Substance | IC50, inhibition of VEGF-induced calcium increase in HUVEC cells [1] | Kd [2] | koff [2] | kon [2]
베바시주맙(아바스틴) (antibody) | 1200 pM |  |  | 
Lucentis-Ig (antibody) |  | 14.8 pM | 5.92e-06 s⁻¹ | 400000 M⁻¹ s⁻¹
